Experimental findings from patent publication US20150011541A1, “PIPECOLATE-SULFONAMIDES FOR TREATMENT OF PSYCHIATRIC DISORDERS” (Max-Planck-Gesellschaft zur Förderung der Wissenschaften …, priority 2011, published 2015) are described below.

The target in one test is T1, human FKBP51FK1 (Homo sapiens, UniProt Q13451).
T1 sequence (Q13451 42-130 limits assumed): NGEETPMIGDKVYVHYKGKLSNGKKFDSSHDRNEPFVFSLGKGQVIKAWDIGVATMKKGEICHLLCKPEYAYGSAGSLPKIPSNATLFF
The experiment in a line: Fluorescence polarization assay, binding to FK1 domain of FKBP51. The following applies: read-out: FKBP 51 FK1 % inhibition, at a concentration of 5 μM; library testing.

In a further test the target is T2, human FKBP52FK1 (Homo sapiens, UniProt Q02790).
T2 sequence (Q02790 50-138 limits assumed): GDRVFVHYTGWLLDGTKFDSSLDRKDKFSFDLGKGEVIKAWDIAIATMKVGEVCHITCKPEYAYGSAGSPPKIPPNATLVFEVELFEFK
The experiment in a line: Fluorescence polarization assay, binding to FK1 domain of FKBP52. The settings on record: read-out: FKBP52 FK1 % inhibition, at a concentration of 5 μM; library testing. For orientation: Fluorescence polarisation rises when a labelled molecule tumbles more slowly, as on binding a larger partner.

Turning to `COc1ccc(CC[C@@H](OC(=O)[C@@H]2CCCCN2S(=O)(=O)c2ccoc2)c2cccc(OCC(=O)O)c2)cc1OC` [Compound 4, 2-(3-((R)-3-(3,4-dimethoxyphenyl)-1-((S)-1-(furan-3-ylsulfonyl)piperidine-2-carbonyloxy)propyl)phenoxy)acetic acid], the inhibition at 5 µM was 15.2% at human FKBP51FK1 and 16.2% on human FKBP52FK1.
